# Ab-14 light chain CDR variants: yeast mating affinities

Target: peptide PDVDLGDISGINAS, taken from heptad repeat 2 (HR2) of SARS-CoV-2 spike.

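The parent was found by panning a naive human phage display library on the peptide. Library AAYL50 holds single substitutions and randomly drawn double and triple substitutions in the CDRs. In AlphaSeq, yeast of one mating type display the scFv and yeast of the other type display the target. Mating (16 h, 30 °C) was followed by selection of diploids and sequencing of their barcodes. Read counts were normalised to the haploid input and turned into Kd by a linear fit to BCL2-family pairs of known affinity, for each replicate. Mating was done three times.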

The variants keep the heavy chain, the linker and the frameworks of Ab-14 (scFv order VH, a 15-residue (Gly4Ser)3 linker, VL).
VH: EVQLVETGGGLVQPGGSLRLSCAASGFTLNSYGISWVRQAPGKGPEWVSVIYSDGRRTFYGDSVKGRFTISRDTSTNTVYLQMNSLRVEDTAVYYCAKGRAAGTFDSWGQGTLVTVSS
VL: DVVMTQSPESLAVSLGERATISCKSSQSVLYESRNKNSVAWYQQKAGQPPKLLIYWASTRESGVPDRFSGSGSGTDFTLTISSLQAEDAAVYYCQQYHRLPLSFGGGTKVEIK

Variants are written as CDR1, CDR2 and CDR3 of the light chain (limits as in the source). Parent: KSSQSVLYESRNKNSVA, WASTRES, QQYHRLPLS. The read-out is the apparent dissociation constant on a log10 scale (nM): the lower, the stronger. The mean shown is taken over the replicates in which the pair was detected. "nd" means that the variant was in the library but no mating with the target was seen in that replicate; the authors take this as a sign of poor binding, and no number exists.

With KSSQSVLCESRGKNSVA / WASTRES / QQYHRLPIS the result was 2.32, 2.12, 2.67 (mean 2.37; controls 4 of 9).
With KSSQSVCYESRNKNSVA / DASTRES / QIYHRLPLS the result was 0.13, 0.49, 0.30 (mean 0.31; controls 4 of 9).
With KSSQSVLDECRNKMSVA / WASTRES / QQYHRLPLS the result was 2.03, 1.68, 1.32 (mean 1.68; controls 2 of 9).
With KSSQSVLYESRNDNSVA / WASLREF / QQYHRLPLS the result was 0.70, 0.94, 0.84 (mean 0.83; controls 1 of 9).
With KSSQSELYESRNKNSVA / WASTRES / QQYHRLPLT the result was 0.24, 0.65, 0.63 (mean 0.51; controls 0 of 9).
With KSSQSVLYESRNKNSVA / WKSTIES / QQYHRLPLP the result was 4.97, 3.39, 5.79 (mean 4.72; controls 6 of 9).
With KQSQWVLYESRQKNSVA / WASTRES / QQYHRLPLS the result was 2.43, 1.66, 2.32 (mean 2.14; controls 0 of 9).
With KSSQSVLYEWGNKNIVA / WASTRES / QQYHRLPLS the result was 4.11, 5.46, 4.10 (mean 4.56; controls 3 of 9).
With KSSQSVLYEFRNKNSVA / WASTRES / QQYHPLPLS the result was 5.28, 5.72, 5.68 (mean 5.56; controls 3 of 9).
With KSSQSVLPESRNGNSVA / WASTRES / QLYHRLPLS the result was 1.96, 1.60, 1.96 (mean 1.84; controls 2 of 9).
With KSSQSYLYESRNKNDVA / WASTRES / QQYHRLPNS the result was nd, nd, 4.77 (controls 6 of 9).
With KSSQSVLTYSRNKNSVA / WCSTRES / QQYHRLPLS the result was 4.10, 2.66, nd (mean 3.38; controls 2 of 9).
With KSSQSVFYESRNKNSVA / WAATRES / QKYHRLPLS the result was nd, nd, nd (controls 0 of 9).
With FSSQSVLYESRNKNSNA / WRSTRES / QQYHRLPLS the result was 5.96, nd, nd (controls 2 of 9).
With KSIQSVLYDSRNKNSVK / WASTRES / QQYHRLPLS the result was 6.53, 4.75, 4.34 (mean 5.21; controls 7 of 9).
With KSSQSVLYESQNSNSVA / WASTRQS / QQYHRLPLS the result was 0.51, 0.66, 0.64 (mean 0.60; controls 3 of 9).
With KSSQSVLYEIRHKNSVA / WASTRES / QQYHRNPLS the result was nd, 4.09, 4.29 (mean 4.19; controls 3 of 9).
With KSSQSVSYESRNKNSVA / WASDRES / QQYHRLPLS the result was 2.16, 1.85, 2.52 (mean 2.18; controls 0 of 9).
With KSSQSVLQESRNKNSVD / WASGRES / QQYHRLPLS the result was nd, nd, nd (controls 0 of 9).
With KSSQSVLYESRNKNYVA / WASTRIS / VQYHRLPLS the result was nd, nd, nd (controls 0 of 9).
With KSSQSVLYESRNVNSVA / WASTRES / WQYHRLPLS the result was nd, nd, nd (controls 4 of 9).
With KSSQSVLYESRNRNSVA / WASTRES / QQYHRLCLS the result was 0.49, 0.74, 0.67 (mean 0.63; controls 2 of 9).
With KSLQSVVYESRNKNSVA / WASTREW / QQYHRLPLS the result was 2.00, 1.99, 2.09 (mean 2.03; controls 2 of 9).
With KSSQSVLYESGNKNSAS / WASTRES / QQYHRLPLS the result was nd, nd, 4.06 (controls 0 of 9).
With KSSQSVLYESRNKNSVE / WKSTRES / QQMHRLPLS the result was 4.22, nd, nd (controls 0 of 9).
With KSSQSVLYEGRNKNVVA / WASTRES / QQYSRLPLS the result was nd, nd, nd (controls 1 of 9).
With KSSQSVLYEPRNKNSVA / WASTRES / QQYHRLPFC the result was 3.31, nd, nd (controls 1 of 9).
With YSSESVLYESRNKNSVA / WASTREF / QQYHRLPLS the result was 1.49, 1.59, 1.61 (mean 1.56; controls 2 of 9).
With KAPQSVLYISRNKNSVA / WASTRES / QQYHRLPLS the result was 0.91, 2.41, 1.91 (mean 1.74; controls 2 of 9).
With KSSQSVLYESRNKNSVA / WQSTRGS / QQMHRLPLS the result was nd, nd, 5.24 (controls 1 of 9).
With KSSQSVLYVSRNKNSVA / NASTRES / QQVHRLPLS the result was 0.17, 0.50, 0.34 (mean 0.33; controls 4 of 9).
With KSSQSVLYPSRNKQSVA / WASTRES / QQYHRCPLS the result was 2.24, 2.51, 2.59 (mean 2.45; controls 0 of 9).
With KSSQSVLYESRKKNSVA / WASTRES / TQYHRLPLS the result was 4.16, 2.96, 5.76 (mean 4.29; controls 3 of 9).
With KSSQSVLYEHRNKNSVA / WARTQES / QQYHRLPLS the result was nd, nd, 2.77 (controls 0 of 9).
With KSSQSVLQESRNKNSVA / WASTRES / QKYYRLPLS the result was nd, nd, nd (controls 0 of 9).
With KSSQSVLYESRNKNSVA / WASTRVS / QQCHRLPFS the result was nd, nd, nd (controls 0 of 9).
With KSSQSVLYEFREKNIVA / WASTRES / QQYHRLPLS the result was 4.58, 3.68, nd (mean 4.13; controls 1 of 9).
With KSSVSVLYESRNKNSVA / WASTRES / QVYHRLPLS the result was 2.92, 2.88, 3.06 (mean 2.95; controls 1 of 9).
With KSSQSVLYESRNINSVA / WFATRES / QQYHRLPLS the result was nd, nd, nd (controls 0 of 9).
With KSSQSVLYESRNKNSWA / WHSTRES / QQYVRLPLS the result was nd, 4.11, 4.42 (mean 4.27; controls 6 of 9).
With KSSQSVLYENRNKFSVA / WASTRES / QQYHRLPLS the result was 1.46, 1.55, 1.59 (mean 1.53; controls 0 of 9).
With GSSQSVLYESPNKNSVA / WASTRES / QQYHQLPLS the result was 0.85, 1.41, 1.21 (mean 1.16; controls 0 of 9).
With KSCQSVLYESRNKNSVA / WASTDKS / QQYHRLPLS the result was nd, 4.66, nd (controls 0 of 9).
With KSSCSVHYESRNKNSVA / WASTCES / QQYHRLPLS the result was nd, nd, 4.81 (controls 5 of 9).
With KSSQSVHYESRNKNSVA / AASTPES / QQYHRLPLS the result was 0.38, 0.63, 0.61 (mean 0.54; controls 0 of 9).
With SSSQSVLYESRNKNSVA / FAPTRES / QQYHRLPLS the result was 5.16, 4.29, nd (mean 4.72; controls 5 of 9).
With KSSQSVLYVSRNKNSVA / WASFRES / EQYHRLPLS the result was nd, nd, 3.93 (controls 3 of 9).

Again, the first 6 entries without any signal:

CDR-L1,CDR-L2,CDR-L3,"log10 Kd, replicates","mean, log10 nM",empty controls
KSSQSVFYESRNKNSVA,WAATRES,QKYHRLPLS,"nd, nd, nd",nd,0/9
KSSQSVLQESRNKNSVD,WASGRES,QQYHRLPLS,"nd, nd, nd",nd,0/9
KSSQSVLYESRNKNYVA,WASTRIS,VQYHRLPLS,"nd, nd, nd",nd,0/9
KSSQSVLYESRNVNSVA,WASTRES,WQYHRLPLS,"nd, nd, nd",nd,4/9
KSSQSVLYEGRNKNVVA,WASTRES,QQYSRLPLS,"nd, nd, nd",nd,1/9
KSSQSVLQESRNKNSVA,WASTRES,QKYYRLPLS,"nd, nd, nd",nd,0/9

As a blank, each scFv also met three strains without target: over library AAYL50, 18% of these pairings were detected, typically at 4.19 and seldom below 2.99. For each scFv, signals with the empty controls are counted beside the result.

Source: Engelhart et al. 2022 (doi:10.1038/s41597-022-01779-4), MIT Lincoln Laboratory and A-Alpha Bio; data file from the FLAb repository.